For the assay, the target named is Prothrombin (Homo sapiens, UniProt P00734). Briefly: In vitro inhibition was measured against Human Thrombin. Put shortly: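 α-Thrombin was used at 160 pM final, with Pefachrome TH chromogenic substrate. Buffer was 100 mM sodium phosphate pH 7.4, 100 mM NaCl and 0.1% BSA, at 25 °C. Inhibitor was taken from a cremophor/ethanol 1:1 stock diluted with water to 1 mM. Enzyme was added last. p-Nitroaniline release was followed at 405 nm for 30 min. Ki came from a weighted Dixon regression; triplicate, mean ± SD.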

As a reminder, the Ki is the equilibrium dissociation constant of an inhibitor or competing ligand from its target. High values mean lower affinity, low ones higher affinity. Molecule `N=C(N)NCCCNC(=O)[C@@H]1CS[C@H]2CC[C@@H](NS(=O)(=O)Cc3ccccc3)C(=O)N21` yielded a Ki of 145 nM. In other words, the sub-micromolar range.
For `N=C(N)NCCCNC(=O)[C@@H]1CS[C@H]2CC[C@H](NS(=O)(=O)c3cccc4ccccc34)C(=O)N21`, the Ki was 1450 nM.

The values above are taken from ChEMBL document CHEMBL1131291, “Rational design, synthesis, and X-ray structure of selective noncovalent thrombin inhibitors” (J Med Chem, 1998).
